## Yeast mating assay 1: variants of the scFv Ab-14

Source: Engelhart et al. 2022 (doi:10.1038/s41597-022-01779-4), MIT Lincoln Laboratory and A-Alpha Bio; data file from the FLAb repository.

Target peptide (SARS-CoV-2 spike, HR2 region): PDVDLGDISGINAS

Parent scFv Ab-14: VH joined to VL by a 15-residue (Gly4Ser)3 linker. Changes lie in the heavy chain CDRs alone.
VH: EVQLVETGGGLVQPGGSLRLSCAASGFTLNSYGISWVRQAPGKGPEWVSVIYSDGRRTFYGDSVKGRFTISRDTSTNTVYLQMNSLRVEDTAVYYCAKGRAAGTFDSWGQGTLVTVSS
VL: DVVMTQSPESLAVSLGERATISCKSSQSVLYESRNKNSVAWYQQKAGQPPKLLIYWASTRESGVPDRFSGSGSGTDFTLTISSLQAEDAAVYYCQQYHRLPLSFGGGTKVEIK

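The library (AAYL49) carries one to three amino acid substitutions per variant, with no insertions or deletions. The assay is AlphaSeq: two haploid yeast populations carry antibody and antigen on their surface. Pairs that bind mate more often; barcode pairs of the diploids are counted by sequencing. Each replicate has its own calibration line, from reference interactions of the BCL2 family. Mating was done three times.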

The parent's heavy chain CDRs are GFTLNSYGIS, VIYSDGRRTFYGDSVK, GRAAGTFDS; each variant's own CDRs replace them letter for letter.
The read-out is the apparent dissociation constant on a log10 scale (nM): the lower, the stronger.
Where no diploid with the target was found in that replicate, the entry reads "ND": below detection, most likely a poor binder, though not proof of it.
Parent in this assay: reference entry 0.65, copy in this library 4.11 (one replicate of three).
Three control strains display no target. For library AAYL49, 15% of the pairings with them gave a signal, with a median of 4.06 and one signal in twenty below 2.83, so weak values seen in few replicates may be background. Also given: how often the same scFv was detected with the empty control strains, with their mean in brackets.

CDR-H1	CDR-H2	CDR-H3	log10 Kd, replicates	control signals
GFTLNSIGIS	VIYSMGRRTFYGDSVK	GRLAGTFDS	ND / ND / 4.70	1/9 (3.74)
GFTLNSYGIS	VIYSDGRRTMYGDSVA	GRAAGTFDY	ND / ND / 4.01	0/9
GFTLFMYGIS	VIYSDGRRTFYGDSVK	GRSAGTFDS	2.17 / 1.91 / 2.50	1/9 (3.44)
GFTLNSYGHS	VIYSDGRSTFYGDSVK	GAAAGTFDS	ND / 3.20 / ND	0/9
GFTLNMYGIS	VIYSDGRRTFYGDSVK	LRVAGTFDS	ND / ND / ND	0/9
GFTLNSYGIS	VRYSDGRRTFYGDSVK	TRAANTFDS	ND / ND / ND	0/9
GFTLNSYEIS	VIYSDGRRTFYGDSVK	GQAAGTFDM	ND / ND / ND	0/9
GFTLNSYGIS	VIYSADYRTFYGDSVK	GRAAGTFDS	ND / ND / ND	4/9 (3.98)
GFTLNSYGIS	VIYSDRRRTYYGDSVK	GRSAGTFDS	ND / ND / ND	0/9
GFTLNSYGIS	VIYSDGRRTFYYESVK	GRAAWTFDS	ND / ND / 3.67	0/9
GFTLNSYGIL	VIYSDGRRTFYDDSVK	GRAKGTFDS	ND / ND / ND	0/9
GFTLNSYGIS	VIYSDGRRTFYGDPVY	GNAAGTFDS	1.47 / 1.49 / 1.59	2/9 (3.80)
GFTLNSYGIS	VIYDDGRWTFYGDSVK	GRAAGTFDS	ND / ND / 3.93	0/9
GATLGSYGIS	VIYSDGRRTFYGDSVK	GRASGTFDS	ND / 3.86 / 4.39	2/9 (4.39)
GFTLNSYGIS	VIYSDGRRTFYGDSVM	HRAAGTFDS	ND / ND / ND	0/9
GFTMNSYGIS	VIASDGRRTFYGDSVK	GRAAGTFDR	ND / ND / ND	0/9
GFTLNSYHIS	VITSDGRRTFYGDSVK	GRAAGWFDS	ND / ND / 3.76	0/9
GFCLNSYGIS	VIYSDGRRTFYGDSVK	RRAMGTFDS	ND / ND / ND	0/9
GFTPNSYGES	VIYSDGRRTFYGDSVK	GRAAGTFDM	ND / ND / ND	1/9 (3.44)
GFTLNSYGIS	VIYSDGRYTFCGDSVK	GRAAGTFDS	ND / ND / ND	1/9 (2.44)
GFTANSYGIS	VGYSDGRRTFYGDLVK	GRAAGTFDS	ND / ND / ND	4/9 (3.98)
GFTLNSYGID	VIYSDGRRKFYGDSVK	GRAAGTVDS	ND / ND / ND	1/9 (3.66)
GFTLNSYGIS	VIYSDGRRTFTGDSVK	GTAAGTFDS	1.79 / 1.90 / 2.35	1/9 (4.12)
GFTLNSYGMS	VIYSDGRRLFYGDSVF	GRAAGTFDS	4.46 / 3.60 / 4.51	4/9 (3.98)
GFTLNSYGIS	VIYSDGRRTFYGDSVI	CRAANTFDS	ND / ND / 4.95	0/9
GFTLNTYGIS	VIYSDGRRQFYGDSVK	GRKAGTFDS	ND / 2.37 / 2.86	0/9
GFTINSYGIP	VIYSDGRRTFYGDSVK	GRAAGTFDG	ND / ND / ND	0/9
GFTENSLGIS	VIYSDGNRTFYGDSVK	GRAAGTFDS	4.09 / 4.01 / 5.51	8/9 (4.60)
GFTLDSYGIS	VAYSDGRRTFYADSVK	GRAAGTFDS	1.86 / 3.23 / 2.37	2/9 (3.62)
GFTLCSYGAS	VIYSDGRRTFYGDSVK	GRAAGTFES	4.96 / 4.09 / 4.50	7/9 (4.65)
GFTLNSYGIS	VICSDYRRVFYGDSVK	GRAAGTFDS	ND / ND / ND	1/9 (3.01)
GFTLNSNGIS	VIYSDGRRTFYGDSVC	GRAAGTFDL	ND / ND / ND	1/9 (4.17)
GFSLNSYGIS	VIYSDGRRTFYGDSVK	RRAHGTFDS	0.82 / 0.91 / 0.86	0/9
GFTLNSYGIS	VIYWDGRRTFYGDSYK	GRAAKTFDS	ND / ND / ND	0/9
GFTLNSYGVS	VIYSEGRRTFYGDSIK	GRAAGTFDS	3.36 / 3.69 / 4.30	5/9 (4.40)
GFTLNSYGIS	VIYSDGRRTYYGDQVK	GRATGTFDS	ND / ND / ND	0/9
GFTLNSYGIS	VIYSDGRRYFYGDSVK	GPAAGNFDS	ND / 4.04 / 4.35	5/9 (4.06)
GFTLNSYGIS	VIYSDGRRTFYGDSVK	DRFVGTFDS	1.53 / 1.64 / 1.73	2/9 (3.58)
GFTLNSYGIS	VIYSDERRTFYGCSVK	GTAAGTFDS	4.65 / 4.43 / ND	5/9 (4.77)
GFALNSYMIS	VIYSDGRRTTYGDSVK	GRAAGTFDS	ND / ND / ND	2/9 (4.14)